Reference: patent publication US11058744B2, “Composition for treating prostate cancer” (GemVax & KAEL Co., Ltd., priority 2013, dated 2021)

Experiments:
[1] = Body weight of LNCaP cell-xenografted model; settings: FIG. 6
[2] = tested on: LNCaP cell line; test: Transwell migration assay on LNCaP cell line; format: cell-based, human; settings: 10 μM and 30 μM
Method: The effects of Pep1 on cancer cell migration were evaluated by trans-well assay.
The cancer cell migration was evaluated by using the reagents and materials and the cell line incubation method which are described in connection with Example 1. A migration assay method used for this experiment is as follows.
The LNCaP cell line was incubated on a 6-well plate overnight, and then treated with various concentrations of Pep1 (0, 1, 10, 30 μM) and incubated for 24 hours. Thereafter, the resultant LNCaP cell line was seeded at the cell population of 1×10^4/well on a trans-well plate. Three hours after, the upper compartment of each well was removed, and cells that had migrated downwards were immobilized, stained, and quantified.
A separate experiment was further performed to identify cell migration when Pep1 was co-administered with docetaxel. The LNCaP cell line was incubated on a 6-well plate overnight, and then, treated with various concentrations of Pep1(0, 1, 3, 10, and 30 μM) and incubated for 24 hours. Additionally, the cell line was incubated in a growth medium containing docetaxel (3 nM) for 48 hours, and then, seeded on a trans-well plate at a cell population of 1×10^4/well. Three hours after, the upper compartment of each well was removed, and cells that had migrated downwards were immobilized, stained, and quantified. […]

[3] = tested on: LNCaP cell line; test: MTT assay, cancer cell growth inhibition in LNCaP cell line; format: cell-based, human
Method: To identify effects of Pep1 on prostate cancer, the LNCaP cell line was subjected to MTT assay. The cancer cells growth inhibition effects were identified by using the reagents and materials and the cell line incubation method which are described in connection with Example 1. The MTT assay was performed as follows:
The LNCaP cell line having a certain cell population (3×10^3/well) incubated in a 96 well plate (SPL) was incubated in a growth medium containing Pep1 (0, 0.1, 0.3, 1, 3, and 10 μM) and docetaxel (3 nM) for 72 hours, and MTT reagent was added in an amount of 40 μl to each well. After four hours of reaction, the cells were dissolved in DMSO, and an absorbance thereof was measured at a wavelength of 570 nm.
Separately, the same experiment as described above was performed, except that the incubation time and concentration of Pep1 varied. The LNCaP cell line having a certain cell population (3×10^3/well) incubated in a 96 well plate (SPL) was cultured in a growth medium containing Pep1(0, 0.01, 1, 10, and 30 μM) for 96 hours, and then, the MTT reagent was added in an amount of 40 μl to each well. After four hours of reaction, the cells were dissolved in DMSO, and an absorbance thereof was measured at a wavelength of 570 nm.
(§1) To analyze test results, averages of test groups were verified by performing student's t-test. The reference of the statistical significance was set at p<0.05(*) or p<0.01(**).

[4] = tested on: MMP9 (Matrix Metalloproteinase-9); test: MMP9 mRNA expression in LNCaP xenograft tumor tissue (RT-PCR); format: in vivo, BALB/c-nu mice; settings: 10 mg/kg Pep1, compared to control (vehicle) and positive control (Leuprolide 0.1 mg/kg); FIG. 15
Method: (§2) Relative expression levels in tissues xenografted with LNCaP were evaluated to identify the expression of MMP9 (Matrix Metalloproteinase-9) and MMP2 (Matrix Metalloproteinase-2), which are mRNA markers and show cancer cell migration (see FIGS. 15 and 16).
(§3) Test groups 14) to 16) were grafted with LNCaP cell. This experiment was performed by using the reagents and materials and the cell line incubation method which are described in connection with Example 1.
(§4) Test animals: 3 test groups were grafted with the LNCaP cell. The test groups consisted of 5-week BALB/c-nu mice (obtained from Central Lab. Animal Inc., Seoul, Korea). For each group, 6 mice and extra 5 mice were stabilized for 1 week. […]
(§5) From tumor tissues harvested from the 3 test groups, RNA was extracted, and RT-PCR was performed thereon by using primers of MMP9 and MMP2. Each sample obtained by RT-PCR amplification was allowed to flow through 2D gel by electrophoresis, and then, fluorescence-stained to measure the level of expression. […]
(§6) The relative expression level of MMP9 was evaluated with reference to the expression level of the control (vehicle) being set to 2 (see FIG. 15), and the relative expression level of MMP2 was evaluated with reference to the expression level of the control (vehicle) being set to 38 (see FIG. 16).

[5] = tested on: LNCaP cell xenograft; test: Tumor volume in LNCaP cell xenograft model; format: in vivo, BALB/c-nu mice; settings: for cancer growth inhibition (tumor volume), co-administration with docetaxel: FIG. 5; for cancer growth inhibition (tumor volume): subcutaneous every day, 20 days, FIG. 4
Method: Test groups 1) to 7) were grafted with the LNCaP cell. This experiment was performed by using the reagents and materials and the cell line incubation method which are described in connection with Example 1.
(§7) Test animals: 7 test groups were grafted with the LNCaP cell. The test groups consisted of 5-week BALB/c-nu mice (obtained from Central Lab. Animal Inc., Seoul, Korea). For each group, 6 mice and extra 5 mice were stabilized for 1 week. Each mouse was grafted at its side with the LNCaP cell having the cell population of 1*10^7 cells suspended in 100 μl PBS, and observed for 2 weeks. […] The 7 test groups, each consisting of the remaining 6 mice, were treated according to the conditions as below for 20 days. Tumor volume was measured by using calipers according to the following: [width^2×length×0.5 cm^3]
Following the grafting, Pep1 and leuprolide acetate (positive control) were administered to the 6 test groups by subcutaneous injection every day. • 1) LNCaP-grafted control (vehicle) • 2) LNCaP graft+0.01 mg/kg of Pep1 • 3) LNCaP graft+0.1 mg/kg of Pep1 • 4) LNCaP graft+1 mg/kg of Pep1 • 5) LNCaP graft+10 mg/kg of Pep1 • 6) LNCaP graft+0.1 mg/kg of leuprolide acetate • 7) LNCaP graft+0.1 mg/kg of leuprolide acetate+0.1 mg/kg of Pep1
Test groups 8) to 13) were grafted with the LNCaP cell. This experiment was performed by using the reagents and materials and the cell line incubation method which are described in connection with Example 1.
as §7, with “animals: 6” for “animals: 7”, “following: [width×length×0.5” for “following: [width^2×length×0.5”
Following the grafting, Pep1 and docetaxel were administered to the 5 test groups • 8) LNCaP-grafted control • 9) LNCaP graft+20 mg/kg of docetaxel (once a week, intraperitoneal administration) • 10) LNCaP graft+30 mg/kg of Pep1 (three times a week, subcutaneous administration) • 11) LNCaP graft+3 mg/kg of Pep1+20 mg/kg of docetaxel • 12) LNCaP graft+10 mg/kg of Pep1+20 mg/kg of docetaxel • 13) LNCaP graft+30 mg/kg of Pep1+20 mg/kg of docetaxel
Then, the amounts of water and diet, the tumor volume (a shorter diameter, a longer diameter), tumor weight/body weight, thigh muscle weight were measured. In addition, cancer cell samples were prepared, and PCNA (cell growth marker)/TUNEL (apoptosis marker) staining was performed.
as §1

[6] = tested on: MMP2 (Matrix Metalloproteinase-2); test: MMP2 mRNA expression in LNCaP xenograft tumor tissue (RT-PCR); format: in vivo, BALB/c-nu mice; settings: 10 mg/kg Pep1, compared to control (vehicle) and positive control (Leuprolide 0.1 mg/kg); FIG. 16
Method: as §2, §3, §4, §5, §6

Which body weight ([1]; 0.1 mg/kg leuprolide acetate together with 0.1 mg/kg Pep1 (group 7) vs vehicle control) does the source give for CC[C@H](C)[C@H](NC(=O)[C@H](Cc1ccccc1)NC(=O)[C@H](CCCNC(=N)N)NC(=O)[C@H](CC(C)C)NC(=O)[C@H](CCCNC(=N)N)NC(=O)[C@H](CO)NC(=O)[C@@H](NC(=O)[C@H](CC(C)C)NC(=O)[C@H](CC(C)C)NC(=O)[C@H](C)NC(=O)[C@@H]1CCCN1C(=O)[C@H](CCCNC(=N)N)NC(=O)[C@H](C)NC(=O)[C@@H](N)CCC(=O)O)[C@@H](C)O)C(=O)N1CCC[C@H]1C(=O)N[C@@H](CCCCN)C(=O)O [Pep1, EARPALLTSRLRFIPK] here?
Its body weight is “no significant difference in the body weight”.

What about the body weight ([1]; Pep1 0.01-10 mg/kg (groups 2 to 5) vs vehicle control) of the same compound?
Its body weight is “no significant difference in the body weight”.

What about the “cancer cell migration (migrated cell number)” value ([2]; Pep1 1 μM, 24 hours, vs Pep1-free medium, FIGS. 7 and 8) of the same compound?
The value was “the cancer cell migration was statistically significantly inhibited”.

And the “cancer cell migration (migrated cell number) with docetaxel” value ([2]; medium containing docetaxel (3 nM) treated with Pep1 3 μM, FIGS. 9 to 14)?
Its value is “the cancer cell migration was statistically significantly inhibited”.

And the “cell growth inhibition (MTT) with docetaxel” value ([3]; 3 nM docetaxel and Pep1 3 μM, 10 μM or 30 μM vs 0, 0.1, 0.3 or 1 μM, FIG. 3)?
The value was “statistically significant cell growth inhibition effects”.

And the “cell growth inhibition (MTT), repeated experiment” value ([3]; Pep1 0, 0.01, 1, 10, 30 μM, 96 hours, FIG. 2)?
The value was “inhibited cell growth in a concentration-dependent manner”.

What about the “cell growth inhibition (MTT)” value ([3]; Pep1 10 μM vs 0, 0.1, 0.3, 1 or 3 μM, 72 hours, FIG. 1) of the same compound?
Its value is “statistically significant cell growth inhibition effects”.

And the “cell growth inhibition (MTT) with docetaxel, concentration dependence” value ([3]; Pep1 used together with 3 nM docetaxel)?
The value was “concentration-dependent cell growth inhibition effects”.

And the “relative expression level of MMP9 mRNA in tumor tissues” value [4]?
Its value is “low expression levels”.

And the “inhibition of volume of cancer cells, co-administration with leuprolide acetate” value ([5]; 0.1 mg/kg leuprolide acetate + 0.1 mg/kg Pep1 (group 7) vs leuprolide acetate alone (group 6))?
Its value is “produces effects of inhibiting the volume of cancer cells”.

What about the “cancer growth inhibition (tumor volume), co-administration with docetaxel” value ([5]; 10 mg/kg Pep1 + 20 mg/kg docetaxel, final evaluation phase) of the same compound?
Its value is “distinct cancer growth inhibition effects were obtained”.

What about the “cancer growth inhibition (tumor volume)” value ([5]; Pep1 0.01 mg/kg and 0.1 mg/kg) of the same compound?
Its value is “significant cancer growth inhibition effects were not obtained”.

What about the “cancer growth inhibition (tumor volume)” value ([5]; Pep1 1 mg/kg and 10 mg/kg, compared to leuprolide acetate 0.1 mg/kg positive control) of the same compound?
The value was “high inhibition effects were obtained”.

And the “cancer growth inhibition (tumor volume), co-administration with docetaxel” value ([5]; Pep1 co-administered with 20 mg/kg docetaxel)?
The value was “significant inhibition effects was obtained”.

What about the “relative expression level of MMP2 mRNA in tumor tissues” value [6] of the same compound?
The value was “low expression levels”.
